Measurements reported in patent publication US10775391B2, “Nervous system-specific transmembrane proteasome complex that modulates neuronal signaling through extracellular signaling via brain activity peptides” (THE JOHNS HOPKINS UNIVERSITY, priority 2015, dated 2020).

What was measured:
[1] = test system: cortical neuronal cultures; details: 5 minutes of treatment
neuronal cell membranes = details: neurons treated with biotin-epoxomicin, cytosolic and membrane fractions

biotin-epoxomicin
biotin at plasma membranes (immunogold particles) [1]: 91±5%
membrane permeability (ability to cross neuronal cell membranes) (neuronal cell membranes): membrane-impermeable
